Results on one substance are retold here after paper PMC10691279.

For this assay, the target named is Collagen 1 (UniProt P02452). In words: quartz crystal microbalance with dissipation.

Take “full-length recombinant human proteoglycan 4 (rhPRG4) (from UniProt Q92954 25-1404) (natural protein)”: the time constant turned out to be 8 s.
